Test results reported in patent US11753408B2, “Compounds and method for blocking transmission of malarial parasite” (The United States of America, as represented by the …, priority 2016, dated 2023).

Assays:
[1] = system: Asexual parasites of P. falciparum strain 3D7; assay: In vitro drug activity on asexual parasites (SYBR Green assay); assay type: cell-based, Plasmodium falciparum; settings: for EC50: read-out: Asexual EC50, P. falciparum 3D7 asexual parasites, 72 h
Procedure: (§1) Cell culture. Asexual parasites of P. falciparum strain 3D7 were cultured as described previously [Trager W, et al., Journal of Parasitology 2005, 91: 484-486], Stage III-V gametocytes were selected and enriched with 3-day treatment with 50 mM N-acetylglucosamine (NAG) and the following Percoll density gradient centrifugation after gametocyte production [Tanaka T Q, et al., Molecular and Biochemical Parasitology, 2011, 111: 160-163], Gametocytes of HB3 and Dd2 strains were produced and then set up for assay in a similar process. HepG2 cells (ATCC, cat. no. 77400) were cultured in 175-cm^2 tissue culture flasks with 30 ml growth medium at 37° C. in a 5% CO2 humidified atmosphere. Growth medium was made with Dulbecco's Modified Eagle Medium with 10% fetal bovine serum (FBS). Growth medium was replaced every other day and cells were passed at 75% confluence.
Asexual parasites of P. falciparum strain 3D7 were cultured as described previously (Trager, W. et al., J. Parasitol. 2005, 91(3): 484-486). Drug activity on asexual stage parasites was tested using a SYBR Green assay as described previously (Eastman, R. T. et al., Antimicrob. Agents Chemother. 2013, 57(1): 425-435; Smilkstein, M. et al., Antimicrob. Agents Chemother. 2004, 48(5): 1803-1806). Briefly, parasites were diluted to 0.5% parasitemia in complete culture medium with 2% hematocrit and drugs diluted in DMSO (≤0.5%) and were loaded into a 96-well plate (200 μl/well). No drug and RBC alone wells were included as positive and background controls, respectively, and each testing condition was examined in duplicated. After 72 h incubation under the standard culture condition and a freeze-thaw lysis step at −80° C. and room temperature, 100 μl/well of lysis buffer containing SYBR Green I was added to the parasite culture and incubated for 30 min at room temperature. The fluorescence of each well was measured at 520 nm following excitation at 490 nm using a FLUOstar Optima™ microplate reader (BMG Labtech).

[2] = system: Stage III-V gametocytes (blood stage P. falciparum parasites); assay: In vitro drug activity on gametocytes (AlamarBlue viability assay); assay type: cell-based, Plasmodium falciparum; settings: read-out: Gametocyte EC50, 72 h incubation
Procedure: as §1
Compound screening experiments were performed as previously described [Tanaka T Q et al., Molecular and Biochemical Parasitology, 2013, 3188: 20-25], Briefly, 2.5 μl/well incomplete medium was dispensed into each well of 1,536-well plates using the Multidrop Combi followed by 23 nl compound transferring using the NX-TR Pintool (WAKO Scientific Solutions, San Diego, Calif.). 2.5 μl/well of gametocytes was dispensed with a seeding density of 20,000 cells/well using the Multidrop Combi. The assay plates were incubated for 72 h at 37° C. with 5% CO2. After addition of 5 μl/well of 2× AlamarBlue dye (Life Technologies, cat. no. DALI 100), the plates were incubated for 24 h at 37° C. with 5% CO2 and were read in a fluorescence detection mode (Ex=525 nm, Em=598 nm) on a ViewLux plate reader (PerkinElmer).
Stage III-V gametocytes (blood stage P. falciparum parasites) were enriched with treatment with 50 mM N-acetylglucosamine (NAG) and Percoll density gradient centrifugation as described previously^1. Briefly, 2.5 μl/well incomplete medium was dispensed into each well of 1,536-well plates using the Multidrop Combi followed by 23 nl compound transfer using the NX-TR Pintool (WAKO Scientific Solutions, San Diego, Calif.). Then, 2.5 μl/well of gametocytes was dispensed with a seeding density of 20,000 cells/well using the Multidrop Combi. The assay plates were incubated for 72 h at 37° C. with 5% CO2. After addition of 5 μl/well of 2× AlamarBlue dye (Life Technologies, cat. no. DALI 100), the plates were incubated for 24 h at 37° C. with 5% CO2 and then were read in a fluorescence detection mode (Ex=525 nm, Em=598 nm) on a ViewLux plate reader (PerkinElmer).

[3] = Microsomal stability (rat); assay type: in vitro ADME; settings: rat microsomes
[4] = Solubility at pH 7.4; assay type: physicochemical

Compound	EC50 [1] [nM]	Microsomal Stability (rat) T1/2 [3] [min]	Sol @ pH 7.4 (ug/mL) [4] [ug/mL]	Asexual EC50 (nM) ([1]; P. falciparum 3D7 asexual parasites, 72 h)	EC50 [2] [nM]
Cn1c(=O)n(-c2ccc(C(=O)NC3CC3)cc2)c2c3cc(-c4ccc(Cl)cc4)ccc3ncc21	683	–	–	–	–
Cc1ccc(-c2ccc3ncc4c(c3c2)n(-c2ccc(C(=O)N3CCOCC3)cc2)c(=O)n4C)cc1	245	18.2	<1.0	–	689
Cn1c(=O)n(-c2cccc(C(N)=O)c2)c2c3cc(-c4cccc(C(C)(C)C(=O)O)c4)ccc3ncc21	43800	–	–	–	–
CN(C)CCNC(=O)c1ccc(-n2c(=O)n(C)c3cnc4ccc(-c5ccc(F)cc5)cc4c32)cc1	251	–	–	–	–
Nc1ccc(-c2ccc3ncc4[nH]c(=O)n(-c5ccc(C(=O)N6CCCCC6)cc5)c4c3c2)cn1	107	6.5	<1.0	–	374
CN(C)Cc1ccc(-c2ccc3ncc4[nH]c(=O)n(-c5ccc6c(c5)C(=O)NC6)c4c3c2)cc1	14100	>30.0	37.7	–	–
CN(C(=O)c1ccc(-n2c(=O)n(C)c3cnc4ccc(-c5ccc(Cl)cc5)cc4c32)cc1)C1CC1	495	17.8	<1.0	–	2620
CN(C)CCCNC(=O)c1ccc(-n2c(=O)n(C)c3cnc4ccc(-c5ccc(F)cc5)cc4c32)cc1	350	–	–	–	–
CS(=O)(=O)c1ccc(-n2c(=O)[nH]c3cnc4ccc(-c5ccc(N)nc5)cc4c32)cc1	67.8	–	–	–	558
Cn1c(=O)n(-c2ccc(S(C)(=O)=O)cc2)c2c3cc(-c4ccc(N)nc4)ccc3ncc21	68.1	>30.0	4	–	228
CNC(=O)c1cccc(-n2c(=O)[nH]c3cnc4ccc(-c5ccc(CN(C)C)cc5)cc4c32)c1	–	>30	12.7	–	50100
CN(C)C(=O)c1ccc(-n2c(=O)n(C)c3cnc4ccc(-c5ccc(Cl)cc5)cc4c32)cc1	116	25.8	<1.0	–	536
CN(C)C(=O)c1ccc(-n2c(=O)[nH]c3cnc4ccc(-c5ccc(N)nc5)cc4c32)cc1	114	>30.0	4.9	–	5640
CN(C)C(=O)c1ccc(-n2c(=O)[nH]c3cnc4ccc(-c5ccc(Cl)cc5)cc4c32)cc1	1420	18.5	<1.0	–	5310
CS(=O)(=O)c1ccc(-n2c(=O)[nH]c3cnc4ccc(-c5ccc(Cl)cc5)cc4c32)cc1	526	>30.0	<1.0	–	816
CN(C)Cc1ccc(-c2ccc3ncc4[nH]c(=O)n(-c5ccc6c(c5)CNC6=O)c4c3c2)cc1	3800	>30.0	40	–	–
Cn1c(=O)n(-c2ccc(C(=O)N3CCOCC3)cc2)c2c3cc(-c4ccc(Cl)cc4)ccc3ncc21	418	–	–	–	719
Cn1c(=O)n(-c2ccc(C(=O)N3CCOCC3)cc2)c2c3cc(-c4cccc(C#N)c4)ccc3ncc21	1230	–	5.4	–	1120
CN(C)Cc1ccc(-c2ccc3ncc4c(c3c2)n(-c2cccc(S(N)(=O)=O)c2)c(=O)n4C)cc1	–	>30	3.7	–	28700
CN(C)CCCNC(=O)c1ccc(-n2c(=O)n(C)c3cnc4ccc(-c5ccc(Cl)cc5)cc4c32)cc1	154	–	–	–	–
CN(C)Cc1ccc(-c2ccc3ncc4[nH]c(=O)n(-c5cccc(S(N)(=O)=O)c5)c4c3c2)cc1	14700	–	–	–	–

Now from value to compound, other results behind:

EC50 [1] [nM]	Microsomal Stability (rat) T1/2 [3] [min]	Sol @ pH 7.4 (ug/mL) [4] [ug/mL]	Asexual EC50 (nM) ([1]; P. falciparum 3D7 asexual parasites, 72 h)	Compound	EC50 [2] [nM]
490	–	–	–	NC(=O)c1cnc2ccc(-c3ccc(Cl)cc3)cc2c1Nc1ccc(C(=O)NC2CC2)cc1	–
1070	6.2	<1.0	–	Cc1cc(C(=O)N2CCOCC2)ccc1-n1c(=O)[nH]c2cnc3ccc(-c4ccc(Cl)cc4)cc3c21	1910
992	5.5	<1.0	–	Cn1c(=O)n(-c2ccc(C(=O)N3CCCCC3)cc2)c2c3cc(-c4ccc(Cl)cc4)ccc3ncc21	1850
–	12.2	<1.0	Inactive	O=C(c1ccc(-n2c(=O)[nH]c3cnc4ccc(-c5ccc(Cl)cc5)cc4c32)cc1)N1CCCCC1	37400
197	–	–	–	Cn1c(=O)n(-c2ccc(C(=O)NC3CC3)cc2)c2c3cc(-c4ccc(F)cc4)ccc3ncc21	–
60.9	15.6	<1.0	–	Cn1c(=O)n(-c2ccc(C(=O)N3CCCCC3)cc2)c2c3cc(-c4ccc(N)nc4)ccc3ncc21	159
4370	–	–	–	Cc1ccc(S(C)(=O)=O)cc1-n1c(=O)[nH]c2cnc3ccc(-c4ccc(CN(C)C)cc4)cc3c21	14600
446	>30.0	<1.0	–	Cn1c(=O)n(-c2ccc(S(C)(=O)=O)cc2)c2c3cc(-c4ccc(Cl)cc4)ccc3ncc21	1330
914	–	–	–	O=C(NC1CC1)c1ccc(-n2c(=O)[nH]c3cnc4ccc(-c5ccc(Cl)cc5)cc4c32)cc1	–
632	–	5.2	–	N#Cc1cccc(-c2ccc3ncc4[nH]c(=O)n(-c5ccc(C(=O)N6CCOCC6)cc5)c4c3c2)c1	1060
4280	19.6	<1	–	CN(C)C(=O)c1cccc(-n2c(=O)[nH]c3cnc4ccc(-c5ccc(Cl)cc5)cc4c32)c1	–
431	–	–	–	CN(C)CCNC(=O)c1ccc(-n2c(=O)n(C)c3cnc4ccc(-c5ccc(Cl)cc5)cc4c32)cc1	–
5120	–	–	–	CC(=O)c1cnc2ccc(-c3ccc(Cl)cc3)cc2c1Nc1ccc(C(=O)NC2CC2)cc1	–
